Data on nine molecules can be found in patent publication US10759809B2 (priority 2017, dated 2020).

The test system of one data set is SD rat. To be noted: male SD rat, tail tip in water bath of 55° C., by gavage, 1 hour after administration, bliss method.
Another data set relates to SD rats. The data set can be described thus: Evaluation of drug dependence by rat place preference test. Particulars: male SD rats, 3×ED50 dose (hot plate method) by gavage, once a day for 9 days, measured on 10th day within 15 minutes. (Thermal pain tests record how soon the animal reacts.)

SMILES strings stand for the structures.

The ED50 is the dose at which the effect has come halfway, by size or by number of responders. Low readings indicate an effect at a small dose, high ones a need for a large dose. With `[2H]C([2H])([2H])Oc1ccc2c3c1OC1[C@@]4(OC)CC[C@@]5(C[C@@H]4[C@](C)(O)C(C)(C)C)[C@@H](C2)N(C([2H])([2H])C2CC2)CC[C@]315` (some centres unmarked), in the data set on SD rat, the ED50 was over 50 mg/kg. `[2H]C([2H])([2H])Oc1ccc2c3c1O[C@H]1[C@@]4(OC)CC[C@@]5(C[C@@H]4[C@](C)(O)C(C)(C)CC)[C@@H](C2)N(C([2H])([2H])C2CC2)CC[C@]315` had an ED50 in the data set with SD rat of 14.05 ± 8.20 mg/kg.

As to `[2H]C([2H])(C1CC1)N1CC[C@]23c4c5ccc(OC)c4O[C@H]2[C@@]2(OC)CC[C@@]3(C[C@@H]2[C@](C)(O)C(C)(C)CC)[C@H]1C5`, the ED50 in the data set on SD rat is 2.98 ± 1.20 mg/kg. Also, the “Residence time in drug-side box (Mean ± S, s)” value (from here on “Residence time in drug-side box”) with SD rats amounted to 134.52 ± 32.24 s. In turn, `CCC(C)(C)[C@@](C)(O)[C@H]1C[C@@]23CC[C@]1(OC)[C@@H]1Oc4c(O)ccc5c4[C@@]12CCN(CC1CC1)[C@@H]3C5` displayed an ED50 in the data set with SD rat of 8.06 ± 7.32 mg/kg. Moreover, the “Residence time in drug-side box” value in the data set with SD rats is given as 240.23 ± 157.71 s. In turn, `[2H]C([2H])(C1CC1)N1CC[C@]23c4c5ccc(OC)c4O[C@H]2[C@@]2(OC)CC[C@@]3(C[C@@H]2[C@](C)(O)C(C)(C)C)[C@H]1C5` gave an ED50 in the data set on SD rat of 14.52 ± 4.25 mg/kg. Moreover, in the data set with SD rats, the “Residence time in drug-side box” value is listed as 137.77 ± 28.75 s. `[2H]C([2H])([2H])Oc1ccc2c3c1OC1[C@@]4(OC)CC[C@@]5(C[C@@H]4[C@](C)(O)C(C)(C)C)[C@@H](C2)N(CC2CC2)CC[C@]315` (some centres unmarked) came in with an ED50 with SD rat of over 50 mg/kg. For `[2H]C([2H])(C1CC1)N1CC[C@]23c4c5ccc(O)c4O[C@H]2[C@@]2(OC)CC[C@@]3(C[C@@H]2[C@](C)(O)C(C)(C)CC)[C@H]1C5`, in the data set with SD rat, the ED50 stood at 4.01 ± 2.21 mg/kg. For the same molecule, in the data set with SD rats, the “Residence time in drug-side box” value is 121.58 ± 33.98 s.

In the data set on SD rat, `[2H]c1c([2H])c2c3c(c1O)O[C@H]1[C@@]4(OC)CC[C@@]5(C[C@@H]4[C@](C)(O)C(C)(C)CC)[C@@H](C2)N(CC2CC2)CC[C@]315` registered an ED50 of 6.53 ± 5.20 mg/kg. For the same molecule, the “Residence time in drug-side box” value in the data set on SD rats was determined as 282.49 ± 196.72 s.

For `[2H]C([2H])([2H])Oc1ccc2c3c1O[C@H]1[C@@]4(OC)CC[C@@]5(C[C@@H]4[C@](C)(O)C(C)(C)CC)[C@@H](C2)N(CC2CC2)CC[C@]315`, the ED50 in the data set with SD rat is 13.73 ± 9.95 mg/kg.
